## scFv variants of Ab-14 (light chain) against a SARS-CoV-2 spike peptide

Source: Engelhart et al. 2022 (doi:10.1038/s41597-022-01779-4), MIT Lincoln Laboratory and A-Alpha Bio; data file from the FLAb repository.

Target: peptide PDVDLGDISGINAS, taken from heptad repeat 2 (HR2) of SARS-CoV-2 spike.

Parent: Ab-14, a human scFv built as VH, the linker GGGGSGGGGSGGGGS, VL. Only the CDRs of the light chain vary.
VH: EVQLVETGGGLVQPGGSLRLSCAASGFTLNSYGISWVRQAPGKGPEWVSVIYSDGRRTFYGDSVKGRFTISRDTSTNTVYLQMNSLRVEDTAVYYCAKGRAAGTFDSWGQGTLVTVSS
VL: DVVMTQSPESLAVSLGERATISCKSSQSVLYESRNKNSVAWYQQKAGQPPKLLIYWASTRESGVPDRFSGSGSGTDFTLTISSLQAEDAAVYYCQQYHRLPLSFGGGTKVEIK

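Phage display of a naive human antibody library on the peptide gave the parent. Library AAYL50 holds single substitutions and randomly drawn double and triple substitutions in the CDRs. The scFvs were displayed on barcoded MATa yeast, the peptide on MATalpha yeast. After mating in shaken culture at 30 °C for 16 h, diploids were selected and their barcode pairs sequenced. Scores were corrected for input abundance and mapped to Kd with protein pairs of known affinity run in the same pool. There are three technical replicates.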

Positions count from residue 1 of the parent VL; S62D puts D in place of S. This list gathers variants with a substitution at S62 (VL, numbered from residue 1). Kd is apparent (estimated from mating counts) and averaged on the log scale over replicates with a signal. Smaller is tighter. An entry "not detected" has no value in the source: the pair was not observed among the diploids in any replicate. This suggests poor binding but is not conclusive. Nonspecific signal, from three strains lacking the peptide, appeared in 18% of pairings of library AAYL50, centred on 15 µM (5% of these signals below 970 nM); values are not corrected for it. The control count says in how many pairings with the empty strains this scFv gave a signal.

changes	Kd	replicates with signal	empty controls
S62D/L100W/P101Q	14 nM	3 of 3	4 of 9
S58A/S62G/S103E	not detected	0 of 3	3 of 9
S25Q/V29Y/S62T	4.5 nM	3 of 3	0 of 9
A40N/S62W/L100T	not detected	0 of 3	0 of 9
S28D/K36F/S62A	5.5 nM	3 of 3	1 of 9
S62E	12 nM	3 of 3	4 of 9
S58N/S62P/L102Y	not detected	0 of 3	1 of 9
A40Y/E61S/S62Q	not detected	0 of 3	1 of 9
S26F/K36R/S62H	not detected	0 of 3	0 of 9
S62I/P101T	not detected	0 of 3	0 of 9
S25W/S62Y/L102N	44 nM	3 of 3	1 of 9
L30A/S62A	3.9 nM	3 of 3	3 of 9
R60F/S62I/Y97I	not detected	0 of 3	1 of 9
S62I/H98P/R99I	3.0 µM	1 of 3	2 of 9
L30G/R60S/S62Q	not detected	0 of 3	0 of 9
S62G/S103G	46 nM	3 of 3	2 of 9
N37G/S62E/P101M	4.9 nM	3 of 3	0 of 9
V39T/S62R	not detected	0 of 3	2 of 9
L30C/A40H/S62Y	120 µM	1 of 3	2 of 9
S58Y/R60D/S62I	not detected	0 of 3	0 of 9
K24R/E32F/S62Y	not detected	0 of 3	1 of 9
Q27H/S33G/S62W	13 nM	3 of 3	0 of 9
S62K/L100F	78 µM	1 of 3	3 of 9
Q27M/S62P/L100P	16 nM	3 of 3	4 of 9
E61N/S62V	5.7 µM	3 of 3	5 of 9
A40L/R60G/S62P	not detected	0 of 3	0 of 9
W56Y/R60G/S62I	15 µM	1 of 3	2 of 9
E32M/S38V/S62K	not detected	0 of 3	0 of 9
S38R/S62C/L100N	not detected	0 of 3	1 of 9
S26T/S62H/H98A	30 nM	3 of 3	1 of 9
Q27N/E32I/S62F	180 µM	2 of 3	2 of 9
S58C/S62W	1.0 µM	3 of 3	0 of 9
W56K/S62W/Q95C	9.8 µM	1 of 3	2 of 9
L30D/S62P	2.7 nM	3 of 3	0 of 9
S62P/Y97C	4.1 nM	3 of 3	0 of 9
S62M/Y97F/L102M	510 nM	1 of 3	0 of 9
S62Y/L102T	4.3 nM	3 of 3	1 of 9
S38Q/A57P/S62G	45 µM	2 of 3	3 of 9
A40S/S62Q/P101C	31 µM	3 of 3	1 of 9
A57V/E61T/S62Y	480 nM	3 of 3	1 of 9
S62Y/Q95I	not detected	0 of 3	1 of 9
W56E/S62N/H98V	1.4 nM	3 of 3	4 of 9
S25Y/S28D/S62M	7.2 nM	3 of 3	4 of 9
S38D/S62Q/L102F	110 nM	3 of 3	1 of 9
L30S/S38M/S62P	22 µM	2 of 3	3 of 9
A57I/S62K/R99Y	not detected	0 of 3	3 of 9
S28W/S62R/Q95F	not detected	0 of 3	0 of 9

Top 4 of the variants detected in all replicates, tightest first:

changes	Kd	replicates with signal	empty controls
W56E/S62N/H98V	1.4 nM	3 of 3	4 of 9
L30D/S62P	2.7 nM	3 of 3	0 of 9
L30A/S62A	3.9 nM	3 of 3	3 of 9
S62P/Y97C	4.1 nM	3 of 3	0 of 9